# High-throughput results as filed in PubChem.
# Most compounds without a hit are left out; they make up all but 1% or so of the library.
# CDK5 p35 inh: inhibitors of human CDK5/p35 kinase, primary screen, biochemical, single concentration; Cyclin-dependent kinase 5 (Homo sapiens) + Cyclin-dependent kinase 5 activator 1 (Homo …; 330,000 tested, 0.01% active; AID 488839, 2010; Recombinant CDK5/p35, ADP-Glo luminescence, 60 min; inhibition, % at 10 µM;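 active = highest replicate inhibition of at least 50% and at least 75% of replicates reaching 50%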;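 note: plate controls were DMSO neutral control for no effect and GW8510 at 10 µM for full effect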
# Statin myotox sup: suppressors of statin myotoxicity in C2C12 myotubes, primary screen, cell-based, single point, plate reader | C2C12 myotubes + simvastatin, ATP luminescence, 48 h; scaled: DMSO 0, geranylgeraniol control 100 | rescue of ATP level, % at 7.49 µM | AID 602340, 2012 | 330,000 tested, 0.78% active;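 active = mean ATP rescue above about 67%, or every replicate alone reaching that limit, limit read from the data, passing the limit was not always enough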;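 note: myotubes were challenged with 10 µM simvastatin during compound exposure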
# UUG fidelity: modulators of start codon recognition fidelity in yeast; AID 602363; activity score, % at 18.7 µM; S. cerevisiae UUG-firefly luciferase reporter, luminescence/redox ratio; 0.13% of 350,000 active;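 active = replicate mean at a twofold rise or more, about +100% in these data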;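 note: firefly luciferase made from a UUG start codon reports start codon fidelity; reporter light over untreated wells divided by growth signal over untreated wells; some hits fall short of that in this replicate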
# Rtt109 Vps75: inhibitors of C. albicans Rtt109/Vps75 HAT, primary screen, biochemical, ThioGlo CoA-SH fluorescence, plate reader; Histone acetyltransferase RTT109 (Candida albicans (strain SC5314 / ATCC MYA-2876)), …; purified Rtt109/Vps75, 4 h; inhibition, % at 34.9 µM; 330,000 tested, 0.16% active; AID 540336, 2011;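 active = inhibition of at least 50% in every replicate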
# Cneo AK release: Cryptococcus neoformans cell lysis inducers, primary screen, AK release luminescence, single concentration | C. neoformans lysis, adenylate kinase release luminescence, 4 h; normalised: neutral wells 0, clomiphene wells 100 | lysis activity, % at 15 µM | 360,000 tested, 0.2% active;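 active = mean lysis activity across replicates of at least 80%, whatever share of replicates individually reach that level; inactive = mean lysis activity below 80%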
#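 Assay system: C. neoformans cells. Amount: yeast cell density of 5 × 10^6 cells/mL. Technique: AK luminescence. Buffer or medium: YPD. Times: static 4 h at 37 °C with compound, 1 h detection. Dosing: single-point compound dose. Read-out: lysis from increased AK signal.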
# The depositor's hits bear a star; . = no result given.
nr	structure	CDK5 p35 inh	Statin myotox sup	UUG fidelity	Rtt109 Vps75	Cneo AK release
1	CCOC(=O)c1cnc(SCC(=O)OC)nc1N	0	.	.	-4	.
2	CCOC(=O)CC(=O)CSc1ncc(C(=O)OCC)c(N)n1	-2	120*	-13	3	1
3	O=C(NCC[C@H]1CC[C@H](NS(=O)(=O)c2ccc(Oc3ccccc3)cc2)[C@@H](CO)O1)C1CC1	.	20	32	.	-3
4	O=C(CN1C(=O)CCS(=O)(=O)c2ccccc21)NCc1ccccc1	1	72*	-11	0	3
5	CO[C@@H]1CN(C)C(=O)c2ccc(NC(=O)C3CC3)cc2OC[C@H](C)N(C(=O)c2ccncc2)C[C@H]1C	.	-10	.	.	81*
6	CO[C@@H]1CN(C)C(=O)c2ccc(NC(=O)C3CC3)cc2OC[C@H](C)N(Cc2ccc(F)cc2)C[C@H]1C	.	14	17	.	86*
7	CNC[C@H]1OCCCC[C@H](C)Oc2ccc(NC(=O)Nc3ccc4c(c3)OCO4)cc2C(=O)N([C@@H](C)CO)C[C@@H]1C	.	6	16	.	-3
8	CCCCN(CCCC)c1nn[nH]n1	1	96*	-15	-4	4
9	CC(C)CN(CC(C)C)c1nn[nH]n1	1	114*	2	0	-2
10	Cc1cccc(S(=O)(=O)N[C@H]2CC[C@@H](CCNC(=O)CCN3CCCCC3)O[C@@H]2CO)c1	.	-7	5	.	-1
11	COCC(=O)N(C)C[C@H]1Oc2cc(C#CCC(C)C)ccc2S(=O)(=O)N([C@@H](C)CO)C[C@H]1C	.	1	-4	.	-2
12	COc1ccc(NC(=O)N(C)C[C@H]2Oc3c(NS(=O)(=O)c4cccs4)cccc3C(=O)N([C@H](C)CO)C[C@H]2C)cc1	.	34	1	.	5
13	COc1ccc(S(=O)(=O)Nc2ccc3c(c2)C(=O)N([C@H](C)CO)C[C@H](C)[C@H](CN(C)C(=O)Nc2ccccc2)O3)cc1	.	0	18	.	90*
14	C[C@@H]1CN([C@@H](C)CO)C(=O)c2cc(NS(=O)(=O)c3ccccc3)ccc2O[C@H]1CN(C)C(=O)NC1CCCCC1	.	8	11	.	112*
15	C[C@H](CO)N1C[C@H](C)[C@H](CN(C)C(=O)NC2CCCCC2)Oc2ccc(NS(=O)(=O)c3ccc(F)cc3)cc2C1=O	.	-7	1	.	-12

# Brought forward from above: 4 entries, followed by the next part.
nr	structure	CDK5 p35 inh	Statin myotox sup	UUG fidelity	Rtt109 Vps75	Cneo AK release
12	COc1ccc(NC(=O)N(C)C[C@H]2Oc3c(NS(=O)(=O)c4cccs4)cccc3C(=O)N([C@H](C)CO)C[C@H]2C)cc1	.	34	1	.	5
13	COc1ccc(S(=O)(=O)Nc2ccc3c(c2)C(=O)N([C@H](C)CO)C[C@H](C)[C@H](CN(C)C(=O)Nc2ccccc2)O3)cc1	.	0	18	.	90*
14	C[C@@H]1CN([C@@H](C)CO)C(=O)c2cc(NS(=O)(=O)c3ccccc3)ccc2O[C@H]1CN(C)C(=O)NC1CCCCC1	.	8	11	.	112*
15	C[C@H](CO)N1C[C@H](C)[C@H](CN(C)C(=O)NC2CCCCC2)Oc2ccc(NS(=O)(=O)c3ccc(F)cc3)cc2C1=O	.	-7	1	.	-12
16	COc1ccc(S(=O)(=O)Nc2ccc3c(c2)C(=O)N([C@H](C)CO)C[C@H](C)[C@@H](CN(C)C(=O)Nc2ccccc2)O3)cc1	0	1	-6	5	0
17	CN(C)CCCNC(=O)C[C@H]1CC[C@@H]2[C@H](COc3ccc(NC(=O)C4CCC4)cc3C(=O)N2C)O1	.	14	-10	.	47
18	O=C(O)C[C@H]1C[C@@H]2c3cc(NC(=O)C4CCOCC4)ccc3O[C@@H]2[C@@H](CO)O1	.	-3	-7	.	6
19	COc1ccccc1S(=O)(=O)N1CC[C@@H]2[C@H](CO)Nc3ccc(-c4ccccc4)cc3[C@@H]21	.	-14	2	.	-2
20	C[C@H](CO)N1C[C@H](C)[C@@H](CN(C)CC2CCCCC2)OCCCC[C@H](C)Oc2ccc(NC(=O)Nc3ccc4c(c3)OCO4)cc2C1=O	.	70*	0	.	1
21	COc1ccc(NC(=O)Nc2ccc3c(c2)C(=O)N([C@@H](C)CO)C[C@@H](C)[C@@H](CN(C)CC2CCCCC2)OCCCC[C@H](C)O3)cc1	.	89*	5	.	1
22	COc1ccc(NC(=O)Nc2ccc3c(c2)C(=O)N([C@H](C)CO)C[C@H](C)[C@@H](CN(C)CC2CCCCC2)OCCCC[C@@H](C)O3)cc1	.	19	-4	.	2
23	CC1Cc2ccccc2N1C(=O)C1CCN(S(=O)(=O)Cc2ccccc2)CC1 (configuration not stated)	0	103*	-15	2	4
24	O=C(O)C1CCN(S(=O)(=O)Cc2ccccc2)CC1	-1	12	-16	16	2
25	COC(=O)C1=C(C)N(c2ccc(F)cc2)/C(=C/c2ccc(O)cc2)C1=O	0	115*	-15	0	1
26	O=C(CNC(=O)c1ccncc1)N/N=C/c1cccc([N+](=O)[O-])c1	-1	.	.	51*	.
27	COCCNC(=O)C[C@@H]1CC[C@@H]2[C@H](COC[C@@H](O)CN2S(=O)(=O)c2ccccc2C)O1	.	-7	23	.	91*
28	COCCNC(=O)C[C@@H]1CC[C@@H]2[C@H](COC[C@H](O)CN2S(=O)(=O)c2ccccc2F)O1	.	-1	-9	.	1
29	CCNC(=O)C[C@@H]1CC[C@H]2[C@@H](COC[C@@H](O)CN2S(=O)(=O)c2ccccc2F)O1	.	7	18	.	95*
30	COCCNC(=O)C[C@H]1CC[C@@H]2[C@H](COC[C@H](O)CN2S(=O)(=O)c2ccccc2C)O1	.	-1	24	.	103*

# Going on with the list:
item | canonical_smiles | CDK5 p35 inh | Statin myotox sup | UUG fidelity | Rtt109 Vps75 | Cneo AK release
31 | COc1ccc(NC(=O)N(C)C[C@H]2Oc3c(NS(=O)(=O)c4ccc(F)cc4)cccc3C(=O)N([C@@H](C)CO)C[C@H]2C)cc1 | . | 26 | 4 | . | -1
32 | CCC(=O)N(C)C[C@@H]1Oc2cc(C#CC3(O)CCCC3)ccc2S(=O)(=O)N([C@H](C)CO)C[C@H]1C | . | -8 | 12 | . | -3
33 | CN(C)Cc1cn(CC[C@@H]2CC[C@@H](NC(=O)Nc3ccccc3F)[C@H](CO)O2)nn1 | . | -1 | -9 | . | 0
34 | CC=Cc1ccc2n(c1=O)C[C@H]1[C@H](CO)[C@@H](C(=O)NCC3CCCCC3)[C@@H]2N1C(C)=O (mixture of isomers) | . | -5 | . | . | 0
35 | C[C@H](NC(=O)C[C@H]1C[C@@H]2c3cc(NC(=O)NC4CCCCC4)ccc3O[C@@H]2[C@H](CO)O1)c1ccccc1 | . | 2 | . | . | 0
36 | COc1ccc(NC(=O)N(C)C[C@@H]2Oc3ccc(NC(=O)Cc4cn(C)c5ccccc45)cc3C(=O)N([C@@H](C)CO)C[C@H]2C)cc1 | . | . | 3 | . | -2
37 | COc1ccc(CC(NC(C)=O)C(=O)NC2CCN(c3nc(C)cc(C)c3C#N)CC2)cc1 (configuration not stated) | -1 | . | . | 53* | .
38 | Cc1ccc(C2=NC(C)(C)N=C2SCC(=O)Nc2ccc(Cl)cc2)cc1 | -1 | . | -1 | 99* | 0
39 | Cc1ccc(S(=O)(=O)N(C)C[C@@H]2Oc3ccc(NS(=O)(=O)c4ccccc4)cc3CC(=O)N([C@@H](C)CO)C[C@@H]2C)cc1 | . | 24 | -6 | . | 1
40 | O=C(O)c1ccc(-c2nc(-c3ccc(Cl)cc3Cl)cs2)cc1 | -1 | -55 | 555* | . | -6
41 | O=C(O)c1ccc(-c2nc(-c3ccc(Cl)cc3)cs2)cc1 | 0 | . | . | 3 | .
